The entries are a selection whose mix differs from that of the whole data set. Calls of active or inactive are those of the source. The call rests on the fitted dose curve; in most records, active means well fitted inhibition curve with a large enough effect; inconclusive means small, poorly fitted or top-dose-only effect; inactive means flat fitted curve, though single readings scatter.
Assay: qHTS for Inhibitors of Vif-A3F Interactions: qHTS; further: nearly all actives have a fitted effect of over 65% in size
Conditions: HeLa A3F-eYFP + Vif (tagged APOBEC3F with the HIV-1 protein that degrades it), YFP fluorescence increase
Source text: The recent discovery and characterization of host restriction factors, which provide a potent defense to invading retroviruses, has provided new targets for antiviral drug development. APOBEC3G (A3G) and APOBEC3F (A3F) are potent cytidine deaminases that block HIV-1 replication; HIV-1 expresses the Vif protein, which counteracts A3G and A3F by binding to them and inducing their proteasomal degradation. The Vif-A3G and Vif-A3F interactions provide two potential targets for development of small molecules which can interfere with the ability of Vif to degrade A3G or A3F. […] To identify inhibitors that can interfere with Vif mediated degradation of A3G and A3F, we have developed Hela cell lines that stably express A3G or A3F tagged with eYFP at the C-terminal end (A3G-eYFP or A3F-eYFP, respectively) and Vif. In the absence of an inhibitor, Vif induces degradation of A3G-eYFP and A3F-eYFP, and the cells are not fluorescent. In the presence of an inhibitor, it is expected that Vif will be unable to degrade A3G-eYFP and/or A3F-eYFP, resulting in an increase in yellow fluorescence. In this assays Vif A3F was screened against the Molecular Library Small Molecule Repository (MLSMR). […]
5 uL of 700 cells/well of A3F-YFP cells are dispensed into black, clear bottom plates. […] The plates are incubated overnight at 37 deg C and then read on the TTP Acumen (Ex 488/ Em 500-530).
Potency means the concentration at half of the fitted maximal effect.

Question: For `CC[n+]1c(/C=C/N(C)c2ccccc2)oc2ccccc21`, which Potency is on record?
Answer: active: 10 µM

— PubChem BioAssay AID602313 (National Center for Advancing Translational Sciences (NCATS), 2012)
